Assay results from US20210196681A1, “SELECTIVE PRESENILIN-2 GAMMA-SECRETASE INHIBITORS” (UNIVERSITEIT MAASTRICHT, priority 2018, published 2021).

System: NICD1-Val1744 (γ-secretase cleavage of Notch1)
Settings: DBZ 0.2 μM, 24 hours; irrespective of the γ-secretase complex; FIG. 2A

**Q.** Which NICD1-Val1744 cleavage does the source give for `C1=Cc2ccccc2-c2ccccc2N1` [DBZ, dibenzazepine] here?
**A.** Its NICD1-Val1744 cleavage is “blocked”.
